Patent US7183394B1, “Helical nucleopeptides” (priority 2000, dated 2007)

What was measured:
d(TA3G5A3T) = test: Gel shift assay with d(TA3G5A3T)
d(A3GGAGGA3) = test: Gel shift assay with d(A3GGAGGA3); conditions: DNA 40 μM, TE-buffer, nondenaturing 14% PAGE at 4° C.

Substance | binding in gel shift assay (d(TA3G5A3T)) | αPNA/DNA ratio at which there was no unbound single-stranded DNA (d(A3GGAGGA3))
Ac-Cys^Acm-Lys-(Ser-Ala2-Lys)4-Ser-Gly-Lys-NH2 | No binding was observed | 
Ac-Cys^Acm-Lys-(Ser^C-Ala2-Lys)2-Ser^T-(Ala2-Lys-Ser^C)2-Gly-Lys-NH2 |  | 1.5
